This is an account of results in PubChem BioAssay AID488839 (Broad Institute, 2010).

Amino acid sequences for entries named in this document (tags omitted).
UniProt Q00535, whole entry, looked up: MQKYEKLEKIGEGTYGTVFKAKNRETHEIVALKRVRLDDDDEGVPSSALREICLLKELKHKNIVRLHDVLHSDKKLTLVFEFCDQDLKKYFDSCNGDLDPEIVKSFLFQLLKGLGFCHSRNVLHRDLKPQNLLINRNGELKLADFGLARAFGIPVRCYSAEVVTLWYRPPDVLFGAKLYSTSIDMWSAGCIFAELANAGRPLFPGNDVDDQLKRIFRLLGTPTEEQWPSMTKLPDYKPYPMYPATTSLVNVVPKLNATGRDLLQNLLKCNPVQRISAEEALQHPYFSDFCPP
UniProt Q15078, whole entry, looked up: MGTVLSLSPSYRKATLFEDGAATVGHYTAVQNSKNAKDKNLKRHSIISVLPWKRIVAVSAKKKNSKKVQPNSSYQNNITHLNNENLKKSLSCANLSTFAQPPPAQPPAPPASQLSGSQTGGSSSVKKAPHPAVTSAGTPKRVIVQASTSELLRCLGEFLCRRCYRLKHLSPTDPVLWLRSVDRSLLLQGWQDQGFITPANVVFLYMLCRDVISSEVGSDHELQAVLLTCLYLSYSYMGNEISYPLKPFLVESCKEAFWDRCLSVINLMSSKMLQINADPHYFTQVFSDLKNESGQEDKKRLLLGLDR

The structures appear in SMILES notation. Only a part is listed here, and it is no random draw. Calls of active or inactive are those of the source.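 How the source made its calls: active means highest replicate inhibition of at least 50% and at least 75% of replicates reaching 50%; inconclusive means only one of the two criteria met; inactive means both criteria failed.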

This assay has as its target Cyclin-dependent kinase 5 (Homo sapiens) + Cyclin-dependent kinase 5 activator 1 (Homo sapiens) (UniProt Q00535+Q15078). Nature of the assay: CDK5/p35 phosphotransfer blockade – biochemical, single concentration, primary screen (AID 488839).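 Further: plate controls were DMSO neutral control for no effect and GW8510 at 10 µM for full effect.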 Particulars: Recombinant CDK5/p35, ADP-Glo luminescence, 60 min; at 10 µM; stronger effect = higher value.
`CCC(=O)N(c1ccccc1)C1(COC)CCN(CCc2cccs2)CC1`: the inhibition is inactive: -2.02%.

On to `CCC(=O)N(c1ccccc1)C1(COC)CCN(CCn2nnn(CC)c2=O)CC1`, for which the inhibition is inactive: 1.08%.
